Laboratory results reported in PMC6675714 (Cancer Medicine, 2019).

Tests used:
[1] = Plasma pharmacokinetics after single ip injection (Ru by ICP‐MS); type: in vivo; conditions: 10 mg/kg single ip
Method: Blood was collected from submandibular vein using a heparin coated glass capillary into heparinized blood collection tubes on ice at time intervals of 1, 2, 6, 12, 24, 48, and 72 hours post injection. Plasma was harvested by centrifuging blood samples at 2800 rpm for 15 minutes at 4°C and stored frozen at − 80°C until analysis. Similarly, kidney, liver, and tumor were harvested after final time point, weighed, and stored into glass vials. One mL of deionized water was added to each tissue sample, subjected to ultrasonic homogenization at 15 W power for 1 minute, followed by lyophilization.
Plasma and tissue concentrations of Ru and Au were measured using inductively coupled plasma–mass spectrometry (ICP‐MS). […] All samples were then mixed with 40 ppb of indium internal standard and analyzed using a Thermo Scientific XSERIES 2 ICP‐MS coupled with ESI PC3 Peltier cooled spray chamber, SC‐FAST injection loop, and SC‐4 autosampler. All the elements were measured using He/H2 collision‐reaction mode.
Pharmacokinetic parameters were obtained from the plasma concentration–time profiles by noncompartmental analysis using Phoenix WinNonlin 6.4 version 6.4 (Pharsight Corporation, Mountain View, CA). […] Concentrations of ruthenium and gold in liver, kidney, and tumors were also determined.

[2] = Maximum tolerated dose (MTD) of RANCE‐1, ip; type: in vivo, NOD.CB17‐Prkdc SCID/J mice
Method: Following 6 intraperitoneal (ip) doses between 30 mg/kg/48 h and 50 mg/kg/48 h followed by a 2‐week recovery period. Vehicle solution (0.5% DMSO + 99.5% normal saline) treated mice were used as controls. Lung, liver, kidney, spleen, and heart were collected, weighed and visually evaluated during a gross necropsy. Parameters such as physical distress and mortality were monitored.

[3] = Plasma chemistry parameters after the trial; type: in vivo, tumor bearing NOD-SCID mice; conditions: plasma 72h after last dose of 10mg/kg/72h, 21 day trial
Method: Supplementary Table 1. Summary of plasma chemistry parameters metabolic analytes for three specimens (collected 72h after the last dose of 10mg/kg/72h at the end of a 21 day trial) from 3 tumor bearing NOD-SCID (NOD/LtSz-Prkdscid/j. The study criteria reflect pathological criterion used in clinical studies. Metabolic markers were quantified from freshly isolated plasma and compared to reference range.

[4] = Hematology values (complete blood count) after the trial; type: in vivo, NOD-SCID mice; conditions: manual differential, blood 72h after last dose, 21 day trial; reference range 0.00-0.39
Method: Supplementary Table 2. Summary of hematology values (mean) for three specimens (collected 72h after the last dose of 10mg/kg/72h at the end of a 21 day trial (NOD/LtSz-Prkdscid/j. Complete blood counts of each group (n = 3 mice per group). Heparinized blood acquired from mice was assessed using the automatic Hematology Analyzer. Blood smears were carried out and fixed with methanol, stained, and observed under the microscope to carry out differential blood white cell counts.

## [Cl2(p‐cymene)Ru(μ‐dppm)Au(IMes)]ClO4 [RANCE‐1]
[1]
  ke: 0.0196 ± 0.0088 h^‐1
[2]; 2 week treatment
  Relatively safe dose: ≤ 35 mg/kg
[2]; MTD study
  Local toxicity in the peritoneal cavity at gross necropsy: no obvious signs of local toxicity
[3]
  A/G ratio: 0.99
  Na/K ratio: 13.89
[3]; marked *▴
  BUN/CREA ratio: 183.33
[3]; reference range 4.8-7.2
  TP: 5.2 g/dL
[3]; reference range 5.0-28
  BUN: 18.33 mg/dL
[3]; reference range 7.3-11.1
  K: 10.97 mEq/L
[3]; reference range 9.5-12.5
  Ca: 9.67 mg/dL
[3]; reference range 145-181
  Na: 150.67 mEq/L
[3]; reference range 428-1609, marked *▾ ◎
  CK: 368.67 U/L
[4]
  EO#: 0.01667 K/uL
